Source: patent US20070059825A1

Target: human zalpha11 receptor (full-length, on cells) (human) (UniProt Q9HBE5)
Test: cell-based or functional assay

**Q.** Which STAT luciferase reporter response of BaF3/KZ134/Zalpha11 cells, fold over media-only control at 50% conditioned media does the source give for “mouse zalpha11 Ligand (from UniProt Q9ES17 18-146)” here?
**A.** 40 fold

**Q.** What about the proliferation of BaF3/Zalpha11 cells (Alamar Blue), fold over background at 50% conditioned media of the same substance?
**A.** 5 fold
